Measured values taken from patent publication US20080167544A1, “Compositions And Methods For Locating An Internal Bleeding Site” (Cold Spring Diagnostics, Inc., priority 2006, published 2008).

Key:
[1] = test system: sites of injury (active clot) in the stomach; experiment: Thrombus detection with ^125I-FBG in rabbits (gastrotomy and mucosal injury, scintillation counting, Geiger counter); type: in vivo, New Zealand White rabbits; conditions: 15 μCi/kg i.v.
Description: (§1) Animals were housed in an AAALAC-certified facility and were studied under the supervision of an approved institutional protocol. CD-1 mice weighing 30 g were from Charles River Laboratories (Wilmington, Mass.). Adult New Zealand White rabbits weighing 3 kg were from Robinson Services (Mocksville, N.C.). Yorkshire pigs weighing 30 kg were from E.M. Parsons and Sons (Hadley, Mass.). All animals acclimated to the animal facility for at least 48 hours before experimentation and were euthanized after experimentation with the use of pentobarbital (mice) or rapid intravenous injection of Fatal-Plus (Vortech Pharmaceuticals, Dearborn, Mich.; rabbits and pigs).
Anesthesia was induced with an intraperitoneal injection of pentobarbital (40 mg/kg) to mice and an intramuscular injection of ketamine (35 mg/kg) and xylazine (5 mg/kg) to rabbits. Pig anesthesia was induced with 4.4 mg/kg intramuscular Telazol (Fort Dodge Labs, Fort Dodge, Iowa), and anesthesia was maintained through a 7-mm endotracheal tube with 1.5% isoflurane/98.5% O2 at 5 L/min. After anesthesia, a laparotomy was made in the midline; the stomach and a loop of small intestine were externalized. A mesenteric vessel of the mice and pigs was lacerated and then permitted to clot, resulting in intramesenteric thrombus formation. For rabbits and pigs, a gastrotomy was made, and the posterior wall mucosa was pulled through. A 5-mm mucosectomy was performed with a scalpel. The injured area was allowed to clot and marked with a 4-0 silk suture for identification.
1.7 mg/kg FBG800 protein (10 nmol/kg of fluorophore) was injected intravenously in mice (N=4) and pigs (N=3). 15 μCi/kg was injected intravenously in rabbits (N=3). This dose is approximately 100 ng and is much less than the total fibrinogen in the rabbit. Injections occurred 30 minutes before or 30 minutes after injury as described below. For controls, the same dose of CW800-labeled human serum albumin (HSA800, N=3)^16 or radiolabeled albumin (^125I-HSA, N=3) was used.
After injection of FBG800, signal to background ratio (SBR) was measured by using as background the signal from an identically sized and shaped region of interest over adjacent mesenteric vessels or GI mucosa. After injection of ^125I-FBG, a standard Geiger counter was swept over the areas of injury to determine whether the site of injury could be recognized simply on the basis of meter readings. The entire stomach was then removed and opened. A portion of stomach away from both the gastrotomy site and the site area of mucosal injury was resected and used for background measurements. Next, the gastrotomy site was resected. Finally, the area of mucosal injury was recognized and resected. All tissues were weighed, placed in scintillation vials, and counted in a standard scintillation counter. […]

[2] = test system: site of thrombus formation (mesenteric vessel); experiment: Real-time intraoperative thrombus detection with NIR fluorescence, mesenteric vessel injury in mice; type: in vivo, CD-1 mice; conditions: injected i.v. 30 minutes after mesenteric vessel injury
Description: as §1
(§2) Anesthesia was induced with an intraperitoneal injection of pentobarbital (40 mg/kg) to mice and an intramuscular injection of ketamine (35 mg/kg) and xylazine (5 mg/kg) to rabbits. […]
(§3) The intraoperative NIR fluorescence imaging system optimized for animal surgery has been described previously in detail.^12 Briefly, it is composed of 2 wavelength-isolated excitation sources, one generating 0.5 mW/cm^2 of 400- to 700-nm “white” light and the other generating 5 mW/cm^2 of 725- to 775-nm light over a 15-cm diameter field of view. Simultaneous photon collection of color video and NIR fluorescence images is achieved with custom-designed optics that maintains separation of the white light and NIR fluorescence (>795 nm) channels. […]

sites of clot formation = experiment: Real-time intraoperative thrombus detection with NIR fluorescence, mesenteric vessel injury and mucosal resection of the stomach in pigs; type: in vivo, Yorkshire pigs; conditions: 30-kg pigs; injected i.v. 30 minutes after injuries
Description: as §1, §2, §3

[3] = rabbits injected 30 minutes after gastrotomy
[4] = rabbits injected 30 minutes before gastrotomy, counted 3 hours after the injury

| Substance | Ratio of the counts at the site of (mucosal) injury as compared to uninjured mucosa [1, 3] | Ratio of the counts at the site of the gastrotomy as compared to uninjured mucosa [1, 3] | Ratio of the counts at the site of (mucosal) injury as compared to uninjured mucosa [1, 4] | Ratio of the counts at the site of the gastrotomy as compared to uninjured mucosa [1, 4] | Accumulation at the site of thrombus formation [2] | Accumulation at the sites of clot formation / injury (sites of clot formation) |
| --- | --- | --- | --- | --- | --- | --- |
| ^125I-HSA: ^125I radiolabeled human serum albumin, control, purchased from Amersham Biosciences | 1.2±0.1 | 1.0±0.4 | 1.7±1.0 | 1.0±0.7 | – | – |
| HSA800: CW800-labeled human serum albumin, control protein | – | – | – | – | no accumulation | no accumulation |
